The values that follow come from ChEMBL document CHEMBL1124899 (J Med Chem, 1990).

Amino acid sequences for entries named in this document (tags omitted).
UniProt P61169, whole entry: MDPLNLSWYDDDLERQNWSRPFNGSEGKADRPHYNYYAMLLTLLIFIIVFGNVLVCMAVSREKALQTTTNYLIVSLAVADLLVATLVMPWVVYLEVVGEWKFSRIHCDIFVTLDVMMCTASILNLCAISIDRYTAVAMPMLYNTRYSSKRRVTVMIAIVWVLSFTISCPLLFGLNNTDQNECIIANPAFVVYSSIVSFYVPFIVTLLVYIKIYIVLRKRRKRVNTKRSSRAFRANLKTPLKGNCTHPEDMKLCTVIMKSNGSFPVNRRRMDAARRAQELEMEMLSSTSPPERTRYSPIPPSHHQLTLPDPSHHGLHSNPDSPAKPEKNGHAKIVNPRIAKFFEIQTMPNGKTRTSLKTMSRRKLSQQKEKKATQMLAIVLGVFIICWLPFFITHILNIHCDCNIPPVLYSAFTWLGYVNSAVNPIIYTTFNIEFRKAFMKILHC

What is called IC50 is the midpoint of a concentration-inhibition curve.

This test addresses D(2) dopamine receptor (Rattus norvegicus, UniProt P61169). Nature of the test: Compound was evaluated for the inhibition of [3H]spiperone binding to dopamine receptor D2 of rat striatal membranes. Type of test: cell membranes, Membrane. The essentials: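 Rat striatal membranes were washed twice at 20,000g and suspended at 3.5 mg wet weight/mL in 50 mM Tris-HCl pH 7.4 with 120 mM NaCl, 5 mM KCl, 2 mM CaCl2, 1 mM MgCl2. Displacement of 0.1 nM [3H]spiperone (final) by 6-7 concentrations of test drug. Nonspecific binding defined with 1 μM (+)-butaclamol. Triplicates, repeated on three days. IC50 from log-probit plot.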

As to `CCN(CCc1ccccc1)CCc1ccc(F)c(O)c1`, the IC50 worked out at 230 nM.
